Results as given in ChEMBL document CHEMBL2429711, “[(11)C]MK-4232: The First Positron Emission Tomography Tracer for the Calcitonin Gene-Related Peptide Receptor” (ACS Med Chem Lett, 2013).

The chains behind the UniProt entries cited, without tags or fusion partners.
UniProt P08183, whole entry: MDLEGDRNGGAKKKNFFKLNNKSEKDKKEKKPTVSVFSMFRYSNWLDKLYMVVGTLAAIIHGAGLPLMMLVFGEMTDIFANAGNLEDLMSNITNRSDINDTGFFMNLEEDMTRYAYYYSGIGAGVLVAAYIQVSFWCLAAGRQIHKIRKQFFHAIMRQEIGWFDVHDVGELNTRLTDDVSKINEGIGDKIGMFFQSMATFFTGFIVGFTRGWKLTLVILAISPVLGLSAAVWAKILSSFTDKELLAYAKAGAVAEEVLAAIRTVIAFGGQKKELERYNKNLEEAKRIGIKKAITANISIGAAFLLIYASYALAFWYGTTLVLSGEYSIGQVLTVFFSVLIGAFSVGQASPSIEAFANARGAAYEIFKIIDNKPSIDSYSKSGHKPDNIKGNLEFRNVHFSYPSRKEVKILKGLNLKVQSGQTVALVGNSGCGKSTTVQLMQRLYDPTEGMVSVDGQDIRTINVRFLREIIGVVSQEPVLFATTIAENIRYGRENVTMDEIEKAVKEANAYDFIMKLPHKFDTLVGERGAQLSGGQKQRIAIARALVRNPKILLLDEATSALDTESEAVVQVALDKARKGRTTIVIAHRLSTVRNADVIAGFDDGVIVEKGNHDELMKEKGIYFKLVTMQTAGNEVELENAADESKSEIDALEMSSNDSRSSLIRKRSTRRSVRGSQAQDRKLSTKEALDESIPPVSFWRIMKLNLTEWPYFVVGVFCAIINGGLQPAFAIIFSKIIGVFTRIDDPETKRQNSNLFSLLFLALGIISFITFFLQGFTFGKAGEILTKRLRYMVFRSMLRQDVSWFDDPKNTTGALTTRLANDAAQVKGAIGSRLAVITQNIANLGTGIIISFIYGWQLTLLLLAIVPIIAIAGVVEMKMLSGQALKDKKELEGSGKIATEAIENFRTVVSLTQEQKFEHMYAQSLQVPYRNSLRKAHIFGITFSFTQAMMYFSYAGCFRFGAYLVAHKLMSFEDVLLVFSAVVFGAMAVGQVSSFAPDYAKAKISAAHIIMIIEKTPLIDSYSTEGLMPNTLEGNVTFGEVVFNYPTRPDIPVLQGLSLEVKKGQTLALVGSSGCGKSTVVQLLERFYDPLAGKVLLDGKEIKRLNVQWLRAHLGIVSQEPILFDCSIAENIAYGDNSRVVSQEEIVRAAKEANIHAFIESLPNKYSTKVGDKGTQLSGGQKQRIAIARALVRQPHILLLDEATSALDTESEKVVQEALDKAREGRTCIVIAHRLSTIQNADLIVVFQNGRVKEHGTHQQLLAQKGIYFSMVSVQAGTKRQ

Key:
MDR1 (ABCB1) = MDR1 (ABCB1) (Homo sapiens, UniProt P08183); experiment: Efflux ratio of human MDR1-mediated drug transport from basolateral to apical side over apical to basolateral side in pig LLC cells expressing human MDR1 at 5 uM; assay type: ADME, cell-based; details: LLC-PK1
Summary of the method: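 P-gp transport ratio BA/AB in LLC-MDR1 cells, test compound at 5 μM.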

[1] = system: CGRP receptor (Macaca mulatta); experiment: Ratio of drug uptake in iv dosed rhesus monkey cerebellum to drug uptake in iv dosed rhesus monkey white matter; details: in vivo

CN1C[C@@H](c2cc(F)cc(F)c2)N(CC(=O)Nc2ccc3c(c2)C[C@@]2(C3)C(=O)Nc3ncccc32)C(=O)C1(C)C
efflux ratio at 5 µM (MDR1 (ABCB1)): 8.9 | Ratio [1]: 1.4
